From publication PMC11822712, “Improving the Activity and Selectivity of a Scorpion-Derived Peptide, A3a, against Acinetobacter baumannii through Rational Design” (ACS Omega, 2025)

Tests used:
[1] = tested on: P. aeruginosa ATCC 27853; details: cation-adjusted MHB, OD600
[2] = tested on: E. coli ATCC 25922; details: same test as μg/mL value; cation-adjusted MHB, 20 h, OD600
[3] = tested on: K. pneumoniae ATCC BAA-1705; format: cell-based, Klebsiella pneumoniae; details: cation-adjusted MHB, OD600
[4] = tested on: E. cloacae ATCC 700323; details: cation-adjusted MHB, OD600
[5] = tested on: S. aureus (MSSA) ATCC 25923; details: same test as μg/mL value; cation-adjusted MHB, 20 h, OD600
[6] = tested on: A. baumannii ATCC 19606; details: same test as μg/mL value; cation-adjusted MHB, 20 h, OD600
[7] = tested on: HaCat cells; assay: Cytotoxicity against mammalian cells, MTT assay; format: cell-based; details: 256 μg/mL, 24 h
Description: HaCat cells were purchased from ECACC and were cultured in Dulbecco’s modified Eagle’s medium (DMEM) supplemented with 10% heat-inactivated fetal calf serum (FCS) and 1% antibiotic–antimycotic (DMEM/FCS). To determine the initial cytotoxicity of all peptides, HaCat cells were plated at 5.56 × 10^4 cells/mL (90 μL) in a 96-well plate. After an overnight incubation at 5% CO2, 37 °C, and 95% humidity, for initial screening peptide at a final concentration of 256 μg/mL (10 μL) were added triplicate wells. […] The positive control was 0.1% Triton-X100. After 24 h, cell viability was determined with the 3-(4,5-dimethyl-2-thiazolyl)-2,5-diphenyl-2H-tetrazolium bromide (MTT) assay. A volume of 10 μL of a 1 mg/mL MTT was added to each well. After 3 h incubation, the medium was discarded, and the plate was rinsed and dried before the formazan crystals were dissolved by adding 25% DMSO in ethanol. The cell viability was determined by measuring the absorbance at OD595. The percentage cell viability was calculated relative to that of the untreated control. […] This was calculated from a sigmoidal curve of cell growth (%) over log10(peptide concentration).

[8] = approx. 1 × 10^6 CFU/mL added 1:1, 20 h, MIC = lowest concentration with growth <0.1 above background, > = no activity at highest concentration tested

Structure (SMILES): CC[C@H](C)[C@H](NC(=O)[C@H](C)NC(=O)[C@H](CCCCN)NC(=O)[C@H](CCCNC(=N)N)NC(=O)[C@@H](NC(=O)[C@H](CC(C)C)NC(=O)[C@H](CO)NC(=O)[C@H](Cc1ccccc1)NC(=O)[C@H](CC(C)C)NC(=O)[C@@H](N)Cc1ccccc1)[C@@H](C)CC)C(=O)NCC(=O)NCC(=O)N[C@@H](CC(C)C)C(=O)N[C@@H](Cc1c[nH]c2ccccc12)C(=O)N[C@@H](CO)C(=O)N[C@@H](C)C(=O)N[C@@H](Cc1ccccc1)C(=O)N[C@@H](CCCCN)C(N)=O [A3a[I14W]]
- MIC (value in brackets) ([1]; same test as μg/mL value, 20 h): 62 µM (≈ 127 µg/mL)
- MIC (value in brackets) [2]: 16 µM (≈ 32.9 µg/mL)
- MIC (value in brackets) ([3]; same test as μg/mL value, 20 h): 62 µM (≈ 127 µg/mL)
- MIC (value in brackets) ([4]; same test as μg/mL value, 20 h): 62 µM (≈ 127 µg/mL)
- MIC (value in brackets) [5]: 2 µM (≈ 4.11 µg/mL)
- MIC (value in brackets) [6]: 4 µM (≈ 8.21 µg/mL)
- cytotoxicity in initial screening [7]: cytotoxicity was observed

Structure (SMILES): CC[C@H](C)[C@H](NC(=O)[C@H](C)NC(=O)[C@H](CCCCN)NC(=O)[C@H](CCCCN)NC(=O)[C@@H](NC(=O)[C@H](CC(C)C)NC(=O)[C@H](CO)NC(=O)[C@H](Cc1ccccc1)NC(=O)[C@H](CC(C)C)NC(=O)[C@@H](N)Cc1ccccc1)[C@@H](C)CC)C(=O)NCC(=O)NCC(=O)N[C@@H](CC(C)C)C(=O)N[C@H](C(=O)N[C@@H](CO)C(=O)N[C@@H](C)C(=O)N[C@@H](Cc1ccccc1)C(=O)N[C@@H](CCCCN)C(N)=O)[C@@H](C)CC [A3a[R7K]]
- MIC [1, 8]: >128 µg/mL
- MIC (value in brackets) [2]: 65 µM (≈ 127 µg/mL)
- MIC [3, 8]: >128 µg/mL
- MIC [4, 8]: >128 µg/mL
- MIC (value in brackets) [5]: 4 µM (≈ 7.81 µg/mL)
- MIC (value in brackets) [6]: 8 µM (≈ 15.6 µg/mL)
- cytotoxicity in initial screening [7]: cytotoxicity was observed

Structure (SMILES): CC[C@H](C)[C@H](NC(=O)[C@H](C)NC(=O)[C@H](CCCCN)NC(=O)[C@H](CCCNC(=N)N)NC(=O)[C@@H](NC(=O)[C@H](CC(C)C)NC(=O)[C@H](CO)NC(=O)[C@H](Cc1ccccc1)NC(=O)[C@H](CC(C)C)NC(=O)[C@@H](N)Cc1ccccc1)[C@@H](C)CC)C(=O)NCC(=O)NCC(=O)N[C@@H](CC(C)C)C(=O)N[C@H](C(=O)N[C@@H](CO)C(=O)N[C@@H](C)C(=O)N[C@@H](Cc1ccccc1)C(=O)N[C@@H](CCCCN)C(N)=O)[C@@H](C)CC [A3a]
- MIC (value in brackets) [5]: 4 µM (≈ 7.92 µg/mL)
- MIC (value in brackets) [6]: 16 µM (≈ 31.7 µg/mL)
- cytotoxicity in initial screening [7]: cytotoxicity was observed

Converted amounts (≈) assume the structure as drawn.
